Source: PubChem BioAssay
Compounds with a hit are over-represented: about 1% of the library has one in this group of screens.
Statin myotox sup: suppressors of simvastatin-induced myotoxicity in C2C12 myotubes; rescue of ATP level, % at 7.49 µM; ATP luminescence, 48 h; scaled: DMSO 0, geranylgeraniol control 100; AID 602340; 330,000 tested, 0.78% active;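 active means mean ATP rescue above about 67%, or every replicate alone reaching that limit, limit read from the data, passing the limit was not always enough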;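 further: myotubes were challenged with 10 µM simvastatin during compound exposure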
CDK5 inh: CDK5/p35 (human) kinase inhibition; Q00535+Q15078; Recombinant CDK5/p35, ADP-Glo luminescence, 60 min; inhibition, % at 10 µM; 330,000 tested, 0.01% active; AID 488839;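 active means highest replicate inhibition of at least 50% and at least 75% of replicates reaching 50%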;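 further: plate controls were DMSO neutral control for no effect and GW8510 at 10 µM for full effect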
UUG fidelity: yeast start codon fidelity modulation; AID 602363; activity score, % at 18.7 µM; S. cerevisiae UUG-firefly luciferase reporter, luminescence/redox ratio; 0.13% of 350,000 active;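 active means replicate mean at a twofold rise or more, about +100% in these data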;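 further: firefly luciferase made from a UUG start codon reports start codon fidelity; reporter light over untreated wells divided by growth signal over untreated wells; some hits fall short of that in this replicate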
Cneo AK release: Cryptococcus neoformans lysis via adenylate kinase release; C. neoformans lysis, adenylate kinase release luminescence, 4 h; normalised: neutral wells 0, clomiphene wells 100; lysis activity, % at 15 µM; 360,000 tested, 0.2% active;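 active means mean lysis activity across replicates of at least 80%, whatever share of replicates individually reach that level; inactive means mean lysis activity below 80%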
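Signal: Adenylate kinase release luminescence | Assay system: Log-phase Cryptococcus neoformans yeast cells | Input: Cells at 5 × 10^6 per mL | Buffer or medium: Fresh YPD growth medium | Compound: Single dose | Schedule: Static 4 h at 37 °C with compound, 1 h detection | Controls: Clomiphene | Read-out: Luminescence rise reflecting yeast cell lysis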
Rtt109 Vps75: blocks Candida albicans Rtt109/Vps75 acetyltransferase activity; AID 540336; inhibition, % at 34.9 µM; 330,000 tested, 0.16% active; purified Rtt109/Vps75, ThioGlo CoA-SH fluorescence, 4 h; Q5AAJ8;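 active means inhibition of at least 50% in every replicate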
Numbers without * were called inactive; · = not tested or not shown.

1) COC(=O)c1ccc(Cn2cc(C(F)(F)F)ccc2=O)cc1
2) C[C@@H]1CCCCO[C@H](CN(C)Cc2ccc(Cl)c(Cl)c2)[C@H](C)CN([C@@H](C)CO)C(=O)c2cc(NC(=O)Cc3ccccc3)ccc2O1
3) CC(C)(C)c1ccc(-c2nc(C#N)c(NCCCn3ccnc3)o2)cc1
4) N#Cc1nc(-c2ccco2)oc1NCCCn1ccnc1
5) Cc1cc2c3c(c1)C1(SCC(=O)N1c1ccc(F)cc1)C(=O)N3C(C)(C)CC2C (configuration not stated)
6) CCOc1cc(C(=O)N(C)Cc2cc3ccccc3[nH]c2=O)cc(OCC)c1OCC
7) CCOc1ccccc1C(=O)N(C)Cc1cc2ccccc2[nH]c1=O
8) CC(C)N(Cc1cc2ccccc2[nH]c1=O)C(=O)c1cccnc1
assay / entry	1	2	3	4	5	6	7	8
Statin myotox sup	·	24	-26	129*	110*	98*	-9	88*
CDK5 inh	-2	·	1	0	0	-2	0	0
UUG fidelity	·	1	10	·	-16	1	4	·
Cneo AK release	·	-2	-2	·	0	9	18	·
Rtt109 Vps75	-5	·	11	3	14	-10	-6	2

9) C[C@@H]1CCCCO[C@@H](CN(C)C(=O)Nc2ccc(C(F)(F)F)cc2)[C@@H](C)CN([C@@H](C)CO)C(=O)c2cc(N(C)C)ccc2O1
10) O=C(O)[C@@H]1[C@@H](CO)[C@@H]2Cn3c(ccc(-c4ccccc4)c3=O)[C@@H]2N1Cc1ccccc1F
11) O=C(C[C@H]1CC[C@@H]2NC[C@H](O)COC[C@H]2O1)NCCc1ccccc1
12) CC(=O)c1cccc(NC(=S)NC2CCCCCCC2)c1
13) COc1ccc(C2NC(c3ccc(OC)c(OC)c3OC)C(C)C(=O)C2C)c(OC)c1OC (configuration not stated)
14) COc1ccccc1C1NC(c2ccccc2OC)C(C)C(=O)C1C (configuration not stated)
15) C[C@@H]1CCCCO[C@@H](CN(C)Cc2ccc(C(F)(F)F)cc2)[C@@H](C)CN([C@@H](C)CO)C(=O)c2cc(NC(=O)CCC(F)(F)F)ccc2O1
16) C[C@@H]1CCCCO[C@H](CN(C)Cc2ccc(C(F)(F)F)cc2)[C@@H](C)CN([C@H](C)CO)C(=O)c2cc(NC(=O)Cc3ccccc3)ccc2O1
assay / entry	9	10	11	12	13	14	15	16
Statin myotox sup	-37	12	-13	13	86*	1	83*	-6
CDK5 inh	·	·	·	1	-1	-2	·	·
UUG fidelity	3	·	9	-25	8	-11	12	-7
Cneo AK release	0	-1	1	129*	-1	2	-5	-4
Rtt109 Vps75	·	·	·	7	7	8	·	·

17) C[C@@H]1CCCCO[C@H](CN(C)C(=O)c2ccncc2)[C@H](C)CN([C@H](C)CO)C(=O)c2cc(NC(=O)CCC(F)(F)F)ccc2O1
18) C[C@@H]1CCCCO[C@H](CN(C)Cc2ccc(C(F)(F)F)cc2)[C@H](C)CN([C@H](C)CO)C(=O)c2cc(NC(=O)Cc3ccccc3)ccc2O1
19) C[C@@H]1CCCCO[C@@H](CN(C)C(=O)c2ccncc2)[C@H](C)CN([C@@H](C)CO)C(=O)c2cc(NC(=O)CCC(F)(F)F)ccc2O1
20) C[C@@H]1CN([C@H](C)CO)C(=O)c2cc(NC(=O)CCC(F)(F)F)ccc2O[C@@H](C)CCCCO[C@@H]1CN(C)Cc1ccc(C(F)(F)F)cc1
21) CCCNC(=O)C[C@@H]1C[C@H]2c3cc(NS(=O)(=O)c4cccc(OC)c4)ccc3O[C@H]2[C@@H](CO)O1
22) Cc1ccc(S(=O)(=O)N(C)C[C@@H]2OCCCC[C@@H](C)Oc3ccc(NC(=O)CCC(F)(F)F)cc3C(=O)N([C@H](C)CO)C[C@@H]2C)cc1
23) COc1ccc(NC(=O)Nc2ccc3c(c2)C(=O)N([C@@H](C)CO)C[C@H](C)[C@H](CN(C)Cc2ccc(Cl)c(Cl)c2)OCCCC[C@@H](C)O3)cc1
24) Cc1noc(C)c1S(=O)(=O)Nc1ccc2c(c1)C(=O)N([C@H](C)CO)C[C@@H](C)[C@@H](CN(C)C(=O)NC1CCCCC1)O2
assay / entry	17	18	19	20	21	22	23	24
Statin myotox sup	·	134*	·	125*	0	·	·	-26
CDK5 inh	·	·	·	·	·	·	·	·
UUG fidelity	30	5	-5	8	-7	-1	9	4
Cneo AK release	82*	-1	3	2	18	11	1	-6
Rtt109 Vps75	·	·	·	·	·	·	·	·

25) O=C(Cc1cccc(C(F)(F)F)c1)Nc1ccc(S(=O)(=O)N2CCCC2)cc1
26) Nn1c(SCC(=O)Nc2ccc(S(=O)(=O)N3CCCC3)cc2)nnc1C(F)(F)F
27) Cc1cccc(OCCC(=O)Nc2ccc(C)c(S(=O)(=O)N3CCCCC3)c2)c1
28) O=C(COc1cccc(C(F)(F)F)c1)Nc1ccc(S(=O)(=O)N2CCCC2)cc1
29) Cc1cccc(OCCC(=O)Nc2ccc(S(=O)(=O)N3CCCC3)cc2)c1
30) COc1ccc(NC(=O)Nc2ccc3c(c2)C(=O)N([C@@H](C)CO)C[C@H](C)[C@H](CN(C)C(=O)NC2CCCCC2)OCCCC[C@H](C)O3)cc1
31) O=C(NCC[C@@H]1CC[C@@H](NS(=O)(=O)Cc2ccccc2)[C@@H](CO)O1)C1CCCC1
32) O=C(CSc1nc(-c2ccco2)cc(C(F)(F)F)n1)NCCc1ccccc1
assay / entry	25	26	27	28	29	30	31	32
Statin myotox sup	0	107*	·	116*	109*	·	-2	89*
CDK5 inh	0	1	-4	-1	0	·	·	1
UUG fidelity	-6	9	-13	11	-3	16	6	·
Cneo AK release	1	-2	-2	-3	5	1	47	·
Rtt109 Vps75	-2	3	4	-5	7	·	·	8

Random excerpt: 2 records from the list.
15) C[C@@H]1CCCCO[C@@H](CN(C)Cc2ccc(C(F)(F)F)cc2)[C@@H](C)CN([C@@H](C)CO)C(=O)c2cc(NC(=O)CCC(F)(F)F)ccc2O1
4) N#Cc1nc(-c2ccco2)oc1NCCCn1ccnc1
assay / entry	15	4
Statin myotox sup	83*	129*
CDK5 inh	·	0
UUG fidelity	12	·
Cneo AK release	-5	·
Rtt109 Vps75	·	3

The list goes on.
33) O=C(CCCSc1nc(-c2ccco2)cc(C(F)(F)F)n1)NCc1cccs1
34) C[C@@H]1CN([C@H](C)CO)C(=O)c2cc(-c3cccc(C(=O)N(C)C)c3)cnc2O[C@H]1CN(C)S(=O)(=O)c1cccc(F)c1
35) Cc1nnc(Nc2ccc(O)cc2)[nH]c1=O
36) Cc1nnc(Nc2ccc(C(=O)O)cc2)[nH]c1=O
37) CCc1nnc(NS(=O)(=O)c2ccc(N/C=C(\C=O)c3nc4cc(Cl)ccc4o3)cc2)s1
38) CCc1nnc(NS(=O)(=O)c2ccc(NC(=O)c3ccc(Cl)cc3)cc2)s1
39) C[C@@H]1CCCCO[C@H](CN(C)CC2CCCCC2)[C@H](C)CN([C@H](C)CO)C(=O)c2cc(NC(=O)CCCN(C)C)ccc2O1
40) C[C@H](CO)N1C[C@H](C)[C@@H](CN(C)C(=O)NC2CCCCC2)OCCCC[C@H](C)Oc2ccc(NC(=O)CCCN(C)C)cc2C1=O
assay / entry	33	34	35	36	37	38	39	40
Statin myotox sup	126*	21	107*	·	93*	·	-237	·
CDK5 inh	-1	·	0	0	2	-1	·	·
UUG fidelity	12	-2	-14	·	-16	·	·	19
Cneo AK release	-5	0	0	·	3	·	·	0
Rtt109 Vps75	-4	·	-6	·	·	1	·	·

41) O=C(COc1ccccc1)N1CCN(S(=O)(=O)c2cccs2)CC1
42) O=C(CCOc1ccccc1)N1CCN(S(=O)(=O)c2cccs2)CC1
43) O=c1cc(-c2ccco2)oc2c1ccc1ccccc12
44) O=c1cc(-c2ccncc2)oc2c1ccc1ccccc12
45) CC(=O)c1ccccc1OC(=O)c1ccc([N+](=O)[O-])o1
assay / entry	41	42	43	44	45
Statin myotox sup	38	78*	103*	8	-8
CDK5 inh	1	0	0	2	0
UUG fidelity	-8	-16	-2	-14	-1
Cneo AK release	-10	-1	0	-1	-1
Rtt109 Vps75	-9	-2	-3	6	58*

By substructure: the entries above containing a cyano group (2)
3) CC(C)(C)c1ccc(-c2nc(C#N)c(NCCCn3ccnc3)o2)cc1
4) N#Cc1nc(-c2ccco2)oc1NCCCn1ccnc1
assay / entry	3	4
Statin myotox sup	-26	129*
CDK5 inh	1	0
UUG fidelity	10	·
Cneo AK release	-2	·
Rtt109 Vps75	11	3
